# Experimental data published in BindingDB's records for doi:10.1016/j.chembiol.2011.12.010 (Boston College, 2012).
# Protein sequences, listed by entry. Tags and fused reporters are not part of them. Lines headed by an entry give the natural chain unless they say otherwise; changes in a name come on top.
# UniProt O60658: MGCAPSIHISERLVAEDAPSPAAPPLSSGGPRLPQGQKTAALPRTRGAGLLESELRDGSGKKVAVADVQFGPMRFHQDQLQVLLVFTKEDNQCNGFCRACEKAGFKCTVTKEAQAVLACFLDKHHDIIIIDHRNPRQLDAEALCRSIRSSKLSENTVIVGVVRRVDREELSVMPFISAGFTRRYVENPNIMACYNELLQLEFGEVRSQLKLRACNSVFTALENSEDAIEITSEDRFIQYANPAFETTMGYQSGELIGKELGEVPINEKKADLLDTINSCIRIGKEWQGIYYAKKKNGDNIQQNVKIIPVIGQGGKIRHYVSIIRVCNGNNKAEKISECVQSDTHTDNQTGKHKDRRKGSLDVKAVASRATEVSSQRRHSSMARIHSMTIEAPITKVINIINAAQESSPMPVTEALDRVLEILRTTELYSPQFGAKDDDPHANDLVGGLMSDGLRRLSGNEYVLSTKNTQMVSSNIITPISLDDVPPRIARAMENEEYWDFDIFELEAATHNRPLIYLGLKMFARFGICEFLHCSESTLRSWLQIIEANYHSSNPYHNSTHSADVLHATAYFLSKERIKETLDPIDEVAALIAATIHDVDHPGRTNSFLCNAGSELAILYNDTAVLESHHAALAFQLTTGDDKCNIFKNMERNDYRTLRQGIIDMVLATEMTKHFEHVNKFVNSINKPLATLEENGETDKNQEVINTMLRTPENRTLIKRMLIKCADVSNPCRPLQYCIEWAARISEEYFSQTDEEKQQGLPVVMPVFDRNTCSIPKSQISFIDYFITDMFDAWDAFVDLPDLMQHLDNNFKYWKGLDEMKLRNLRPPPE
# UniProt Q13946: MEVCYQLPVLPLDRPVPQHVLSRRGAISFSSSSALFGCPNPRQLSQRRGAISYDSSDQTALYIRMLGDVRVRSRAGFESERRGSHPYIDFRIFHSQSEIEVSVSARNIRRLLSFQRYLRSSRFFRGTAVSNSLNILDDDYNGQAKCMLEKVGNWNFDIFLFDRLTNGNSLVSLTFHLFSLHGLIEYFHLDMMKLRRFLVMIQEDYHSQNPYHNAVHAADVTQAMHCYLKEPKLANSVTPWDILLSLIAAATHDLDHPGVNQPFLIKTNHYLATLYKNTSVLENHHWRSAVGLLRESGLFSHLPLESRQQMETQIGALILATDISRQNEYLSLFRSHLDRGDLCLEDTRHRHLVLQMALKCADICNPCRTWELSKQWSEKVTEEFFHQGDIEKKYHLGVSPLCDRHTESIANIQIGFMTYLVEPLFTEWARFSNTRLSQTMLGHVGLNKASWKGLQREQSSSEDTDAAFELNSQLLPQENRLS
# UniProt Q9HCR9: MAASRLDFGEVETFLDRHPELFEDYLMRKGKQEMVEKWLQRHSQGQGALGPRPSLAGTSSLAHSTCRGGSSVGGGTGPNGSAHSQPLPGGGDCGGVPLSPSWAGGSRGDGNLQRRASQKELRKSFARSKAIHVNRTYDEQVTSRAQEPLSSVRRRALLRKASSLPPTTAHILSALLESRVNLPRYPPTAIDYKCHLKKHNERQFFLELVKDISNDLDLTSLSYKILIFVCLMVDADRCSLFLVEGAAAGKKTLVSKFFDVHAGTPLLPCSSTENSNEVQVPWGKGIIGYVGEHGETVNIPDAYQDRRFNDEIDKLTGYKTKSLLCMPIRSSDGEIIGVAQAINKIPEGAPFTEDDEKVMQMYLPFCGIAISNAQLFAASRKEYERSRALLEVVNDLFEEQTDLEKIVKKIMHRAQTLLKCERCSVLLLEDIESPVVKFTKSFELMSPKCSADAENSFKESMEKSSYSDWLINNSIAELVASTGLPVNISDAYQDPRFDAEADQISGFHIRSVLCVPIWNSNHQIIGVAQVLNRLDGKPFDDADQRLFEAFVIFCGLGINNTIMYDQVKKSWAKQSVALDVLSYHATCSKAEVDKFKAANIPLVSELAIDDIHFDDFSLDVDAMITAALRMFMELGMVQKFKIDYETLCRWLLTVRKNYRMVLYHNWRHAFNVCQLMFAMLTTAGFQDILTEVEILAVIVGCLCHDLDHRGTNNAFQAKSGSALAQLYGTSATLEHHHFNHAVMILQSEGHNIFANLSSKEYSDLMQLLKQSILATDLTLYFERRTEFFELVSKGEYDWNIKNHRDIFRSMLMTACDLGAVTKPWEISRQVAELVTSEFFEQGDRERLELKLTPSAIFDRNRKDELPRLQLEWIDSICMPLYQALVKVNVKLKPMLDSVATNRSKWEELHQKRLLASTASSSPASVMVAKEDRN
# UniProt Q9Y233: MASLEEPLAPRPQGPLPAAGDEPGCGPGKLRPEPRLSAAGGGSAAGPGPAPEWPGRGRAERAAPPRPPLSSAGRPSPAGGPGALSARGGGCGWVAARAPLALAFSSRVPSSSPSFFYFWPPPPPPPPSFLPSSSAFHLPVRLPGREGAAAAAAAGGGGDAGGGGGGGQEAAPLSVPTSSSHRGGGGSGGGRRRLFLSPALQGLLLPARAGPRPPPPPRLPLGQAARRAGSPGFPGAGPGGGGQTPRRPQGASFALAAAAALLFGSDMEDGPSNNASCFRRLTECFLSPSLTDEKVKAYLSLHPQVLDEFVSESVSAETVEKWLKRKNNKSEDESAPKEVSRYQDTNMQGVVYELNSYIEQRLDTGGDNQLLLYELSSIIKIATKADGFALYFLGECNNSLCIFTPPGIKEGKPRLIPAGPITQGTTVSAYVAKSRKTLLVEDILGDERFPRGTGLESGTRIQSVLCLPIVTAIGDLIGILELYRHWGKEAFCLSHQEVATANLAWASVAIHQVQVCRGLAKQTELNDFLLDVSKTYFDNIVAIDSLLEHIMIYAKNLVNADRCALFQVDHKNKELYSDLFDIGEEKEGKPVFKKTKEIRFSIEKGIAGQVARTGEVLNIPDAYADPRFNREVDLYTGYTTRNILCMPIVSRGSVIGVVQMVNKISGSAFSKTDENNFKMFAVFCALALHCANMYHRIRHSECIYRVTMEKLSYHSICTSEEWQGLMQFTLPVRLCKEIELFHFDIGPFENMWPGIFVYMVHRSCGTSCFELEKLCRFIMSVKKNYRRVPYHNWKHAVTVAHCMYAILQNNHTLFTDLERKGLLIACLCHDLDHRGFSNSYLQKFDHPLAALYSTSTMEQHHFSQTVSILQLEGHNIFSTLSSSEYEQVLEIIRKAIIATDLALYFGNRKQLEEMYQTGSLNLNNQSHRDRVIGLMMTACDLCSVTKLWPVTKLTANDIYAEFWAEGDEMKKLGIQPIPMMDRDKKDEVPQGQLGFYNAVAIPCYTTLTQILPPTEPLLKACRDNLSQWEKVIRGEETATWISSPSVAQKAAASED
# Assays:
# Experiment in all cases: In Vitro Enzyme Assay
# [1] = target: High affinity cAMP-specific and IBMX-insensitive 3',5'-cyclic phosphodiesterase 8A (Homo sapiens, UniProt O60658)
# [2] = target: cGMP-specific 3',5'-cyclic phosphodiesterase (Homo sapiens, UniProt O76074)
# [3] = target: High affinity cAMP-specific 3',5'-cyclic phosphodiesterase 7A (Homo sapiens, UniProt Q13946)
# [4] = target: Dual 3',5'-cyclic-AMP and -GMP phosphodiesterase 11A (Homo sapiens, UniProt Q9HCR9)
# [5] = target: cAMP and cAMP-inhibited cGMP 3',5'-cyclic phosphodiesterase 10A (Homo sapiens, UniProt Q9Y233)
Compound,IC50 [2],IC50 [3],other results
O=c1nc2sc3ccccc3n2c(=O)n1-c1ccccc1,> 100 µM,,IC50 [1]: > 100 µM
CCCSc1nc2c(c(=O)n1-c1ccccc1OC)SCC2 [BC11-38-4],,> 100 µM,
Cc1ccccc1Nc1ncnc2c1c(-c1ccccc1)cn2-c1ccc(F)cc1,,> 100 µM,
CCC(C)Sc1nc2c(c(=O)n1-c1ccccc1)SCC2 (configuration not stated) [BC11-38-2],,,IC50 [4]: 2.5 µM; IC50 [5]: 5 µM
CCCSc1nc2c(c(=O)n1-c1ccc(C)cc1)SCC2 [BC11-38-3],> 100 µM,,

# More lines, main results first:
IC50 [2],IC50 [3],Compound,other results
> 100 µM,,CCCSc1nc2c(c(=O)n1-c1ccccc1)SCC2 [BC11-38],IC50 [1]: > 100 µM
> 100 µM,> 100 µM,CCCCSc1nc2c(c(=O)n1-c1ccccc1)SCC2 [BC11-38-1],IC50 [4]: 0.4 µM
